Test [1] concerns the target human CB2 receptor from BioSignal (hCB2) (Homo sapiens, UniProt P34972). The experiment in a line: hCB2 receptor binding (3H-CP55,940 displacement). As to conditions: read-out: hCB2 Ki; hCB2 membranes, 3H-CP55,940 radioligand; Ki=IC50/(1+[rad]/Kd).
Test [2] addresses Human CB1 receptor from Receptor Biology (hCB1) (Homo sapiens, UniProt P21554). As to the kind of experiment: hCB1 receptor binding (3H-CP55,940 displacement). Particulars: read-out: hCB1 Ki; hCB1 membranes, 3H-CP55,940 radioligand; Ki=IC50/(1+[rad]/Kd).

Amino acid sequences for entries named in this document (tags omitted).
UniProt P34972, whole entry: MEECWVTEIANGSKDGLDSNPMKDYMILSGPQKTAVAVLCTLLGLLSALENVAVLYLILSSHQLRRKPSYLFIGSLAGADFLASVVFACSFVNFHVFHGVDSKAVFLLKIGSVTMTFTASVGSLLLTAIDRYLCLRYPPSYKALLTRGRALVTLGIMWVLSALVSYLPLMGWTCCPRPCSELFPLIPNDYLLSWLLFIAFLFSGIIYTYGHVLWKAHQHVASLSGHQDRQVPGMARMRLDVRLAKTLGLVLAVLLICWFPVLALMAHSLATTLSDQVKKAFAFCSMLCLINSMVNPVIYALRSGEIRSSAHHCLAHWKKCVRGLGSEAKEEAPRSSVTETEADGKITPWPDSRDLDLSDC
UniProt P21554, whole entry: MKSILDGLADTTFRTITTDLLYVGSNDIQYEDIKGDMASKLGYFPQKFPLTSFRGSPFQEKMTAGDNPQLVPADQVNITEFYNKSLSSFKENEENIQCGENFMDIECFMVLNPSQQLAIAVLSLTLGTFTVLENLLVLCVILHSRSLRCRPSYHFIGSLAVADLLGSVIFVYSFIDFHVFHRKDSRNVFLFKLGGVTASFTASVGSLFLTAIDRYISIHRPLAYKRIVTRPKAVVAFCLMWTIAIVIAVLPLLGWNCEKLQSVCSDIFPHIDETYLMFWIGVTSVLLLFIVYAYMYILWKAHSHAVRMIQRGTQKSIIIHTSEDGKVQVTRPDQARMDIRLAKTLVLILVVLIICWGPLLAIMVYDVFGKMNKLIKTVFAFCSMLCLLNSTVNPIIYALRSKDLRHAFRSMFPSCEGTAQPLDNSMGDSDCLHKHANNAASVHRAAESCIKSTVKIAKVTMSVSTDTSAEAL

Only a part of the results on these compounds is given; other tests are left out.

What is called Ki is a measure of affinity in units of concentration, obtained from inhibition or displacement. Consider `CCOc1ccc(Cc2nc3cc(C(=O)N(CC(F)(F)F)CC(F)(F)F)ccc3n2CC2COCCN2C)nc1` (centres unmarked), for which the Ki in test [1] stood at 1590 nM; in test [2] it was 5570 nM.
The corresponding values for `CCOc1ccc(Cc2nc3cc(C(=O)N(CC(F)(F)F)CC(F)(F)F)ccc3n2CC2COCCN2C)cc1` (centres unmarked) are 55.8 nM and 5570 nM.
Taken in the same sequence, the figures for `CC(C)Oc1ccc(Cc2nc3cc(C(=O)N(CC(F)(F)F)CC(F)(F)F)ccc3n2C[C@H]2CCCCN2C)cc1` were 13.5 nM and 826 nM.
The corresponding values for `CCOc1ccc(C(C)c2nc3cc(C(=O)N(CC(F)(F)F)CC(F)(F)F)ccc3n2CC2CCCN2)cc1` (centres unmarked) are 447 nM and 5180 nM.

Source of the values: patent US7407968B2, “Compounds” (AstraZeneca AB, priority 2003, dated 2008).
